Key:
[1] = test system: Escherichia coli; details: ATCC 25922
[2] = test system: Pseudomonas aeruginosa; details: ATCC 27853

What does the source list for GENTAMICIN?
MIC [1]: 0.5 µg/mL; MIC [2]: 0.5 µg/mL
